# Biological target: ITK (Homo sapiens, UniProt Q08881)
# By UniProt entry, the sequences of proteins in these tests, tags left out.
# UniProt Q08881, whole entry, species assumed: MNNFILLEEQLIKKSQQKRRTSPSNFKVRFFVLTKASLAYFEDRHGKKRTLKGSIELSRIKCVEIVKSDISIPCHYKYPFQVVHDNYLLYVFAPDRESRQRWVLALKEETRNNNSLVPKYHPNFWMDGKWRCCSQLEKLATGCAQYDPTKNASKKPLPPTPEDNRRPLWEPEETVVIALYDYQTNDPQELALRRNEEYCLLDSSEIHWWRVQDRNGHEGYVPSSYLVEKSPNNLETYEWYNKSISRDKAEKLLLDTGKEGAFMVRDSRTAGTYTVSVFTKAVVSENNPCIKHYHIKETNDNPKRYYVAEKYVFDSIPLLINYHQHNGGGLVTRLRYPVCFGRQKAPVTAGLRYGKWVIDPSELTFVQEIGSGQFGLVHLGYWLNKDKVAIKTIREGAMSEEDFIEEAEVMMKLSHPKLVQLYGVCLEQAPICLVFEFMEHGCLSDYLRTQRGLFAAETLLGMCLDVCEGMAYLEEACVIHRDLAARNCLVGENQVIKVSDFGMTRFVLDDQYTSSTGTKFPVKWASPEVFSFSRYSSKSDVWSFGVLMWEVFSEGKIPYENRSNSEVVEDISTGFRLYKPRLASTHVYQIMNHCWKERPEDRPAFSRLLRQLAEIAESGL
smiles,measurement,value
"Cc1cc(C(=O)Nc2nc3cccc(Cl)c3n2[C@@H]2CCCCN(C(=O)/C=C/CN(C)C)C2)ccn1 [COMPOUND A, (R,E)-N-(7-chloro-1-(1-(4-(dimethylamino)but-2-enoyl)azepan-3-yl)-1H-benzo[d]imidazol-2-yl)-2-methylisonicotinamide]","IC50, ITK biochemical",single digit nM potency

# — US20190167694A1, “NEW THERAPEUTICS USES” (NOVARTIS AG, priority 2016, published 2019)
